One substance from patent US20260182580A1, “ANTIMICROBIAL COATING COMPOSITION AND METHOD OF PRODUCING ANTIMICROBIAL PRODUCT USING THE SAME” (published 2026) can be followed below.

This data set is described as follows: Dissolution of silver salt in solvent when preparing the antimicrobial agent. The settings on record: in most solvents.

Consider silver perchlorate, for which the time to dissolve was not above 1 min.
